The list shows a part of the results, in another mix than the full data. Some tests of the compounds listed are not included; inactive here does not mean inactive elsewhere. Active and inactive are the calls of the source.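 Rule for the calls: active = ratio B-score over 3 SD below the library mean, with starting fluorescence within 5 SD of its mean; inactive = the rest, inconclusive results apart.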

Sequences of proteins named here, by UniProt entry; tags and fusion partners are left off.
UniProt Q9NPC2, whole entry: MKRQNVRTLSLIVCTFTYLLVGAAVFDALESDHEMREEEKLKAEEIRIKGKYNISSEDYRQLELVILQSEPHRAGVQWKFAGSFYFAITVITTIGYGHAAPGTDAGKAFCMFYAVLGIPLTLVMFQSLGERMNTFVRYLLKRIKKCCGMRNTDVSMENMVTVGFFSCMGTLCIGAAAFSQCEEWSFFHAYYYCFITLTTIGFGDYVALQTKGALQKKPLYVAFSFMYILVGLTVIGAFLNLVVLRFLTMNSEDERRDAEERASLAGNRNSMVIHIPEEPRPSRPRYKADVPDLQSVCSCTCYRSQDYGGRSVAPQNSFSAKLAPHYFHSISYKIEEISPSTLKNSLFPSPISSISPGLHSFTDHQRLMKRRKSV

The test deals with Potassium channel subfamily K member 9 (Homo sapiens) (UniProt Q9NPC2). Description: KCNK9 potassium channel inhibitors, primary screen, HEK293 cells, thallium flux (AID 488922). The note with it: HEK293 KCNK9, FluxOR thallium flux fluorescence; at 10 µM.
As for `COc1cc(C(=O)NCC2(N(C)C)CCCCC2)c([N+](=O)[O-])cc1OC`, the compound was classed as inactive.
To `CN(C)C1(CNC(=O)c2ccc(Br)cc2)CCCCC1` belongs “inactive”; to `O=C(NCC1(N2CCCCC2)CCCCC1)c1cccc(Cl)c1`, “inactive”.
To `COc1cccc(C(=O)NCC2(N3CCCCC3)CCCCC2)c1` belongs “inactive”.
`COc1ccc(Cl)cc1C(=O)NCC1(N(C)C)CCCCC1`: the outcome was inactive.
To `O=C(OC1CN2CCC1CC2)C(CO)(c1ccccc1)c1ccccc1` (centres undefined) belongs “inactive”.
To `CC(C)Oc1ccc(C(=O)NCC2(N(C)C)CCCCC2)cc1` belongs “inactive”; to `CN(C)c1cccc(C(=O)NCC2(N(C)C)CCCCC2)c1`, “inactive”.
To `COc1ccc(Br)c(C(=O)NCC2(N3CCCCC3)CCCCC2)c1` belongs “inactive”; to `CN1[C@@H]2CC[C@H]1CC(OC(=O)C(O)(c1ccccc1)c1ccccc1)C2` (some centres undefined), “inactive”.
`O=C(NCC1(N2CCCCC2)CCCCC1)c1cc([N+](=O)[O-])ccc1Cl`: the result was inactive.
To `Cc1ccc(C(=O)NCC2(N3CCCCC3)CCCCC2)cc1` belongs “inactive”.
`CCN(CC)CC(C)C(C)OC(=O)C(O)(c1ccccc1)c1ccccc1` (centres undefined): the compound was called inactive.
Turning to `COc1cc(SC)ccc1C(=O)NCC1(N(C)C)CCCCC1`, the compound was called inactive.
To `CC(C)N1C(=O)CC2(CCN(CCOC(=O)C(O)(c3ccccc3)c3ccccc3)CC2)C1=O` belongs “inactive”; to `Cc1ccccc1C(=O)NCC1(N2CCCCC2)CCCCC1`, “inactive”; to `CN(C)C1CCCC1OC(=O)C(O)(c1ccccc1)c1ccccc1` (centres undefined), “inactive”.
To `CN(C)c1ccc(C(=O)NCC2(N(C)C)CCCCC2)cc1` belongs “inactive”.
For `COc1ccc(C(=O)NCC2(N(C)C)CCCCC2)cc1`, the result was inactive.
To `Cc1cc(C(=O)NCC2(N3CCCCC3)CCCCC2)ccc1[N+](=O)[O-]` belongs “inactive”; to `CCN1CCCC(OC(=O)C2(O)c3ccccc3C=Cc3ccccc32)C1` (centres undefined), “inactive”; to `O=C(NCC1(N2CCCCC2)CCCCC1)c1cccc(Br)c1`, “inactive”.
To `C=CCN1CCN(CCOC(=O)C(O)(c2ccccc2)c2ccccc2)CC1` belongs “inactive”.
Consider `O=C(NCC1(N2CCCCC2)CCCCC1)c1cc(F)c(F)cc1Cl`, for which the call was inactive.

Values taken from PubChem BioAssay AID488922 (Johns Hopkins Ion Channel Center, 2010).
